Yeast mating assay B: variants of the scFv Ab-14

Data: MIT Lincoln Laboratory AlphaSeq set, Li et al. 2023, doi:10.1038/s41467-023-39022-2, as distributed in FLAb.

Binding partner: SARS-CoV-2 spike HR2 peptide, sequence PDVDLGDISGINAS.

The variants keep the heavy chain, the linker and the frameworks of Ab-14 (scFv order VH, a (GGGGS)3 linker, VL).
VH: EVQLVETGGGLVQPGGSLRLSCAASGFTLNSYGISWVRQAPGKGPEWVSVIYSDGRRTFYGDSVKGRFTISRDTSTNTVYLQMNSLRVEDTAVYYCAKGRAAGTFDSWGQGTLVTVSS
VL: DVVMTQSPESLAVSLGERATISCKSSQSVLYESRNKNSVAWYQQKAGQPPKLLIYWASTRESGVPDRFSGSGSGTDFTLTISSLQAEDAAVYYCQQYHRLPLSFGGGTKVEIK

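The parent was found by panning a naive human phage display library on the peptide. Designed CDR sequences, proposed from the first random library and measured here. Several design methods are mixed in this list. The assay is AlphaSeq: two haploid yeast populations carry antibody and antigen on their surface. After mating in shaken culture at 30 °C for 16 h, diploids were selected and their barcode pairs sequenced. Each replicate has its own calibration line, from reference interactions of the BCL2 family. The assay was run in six technical replicates.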

The whole VL of each variant is written out. The read-out is the apparent dissociation constant on a log10 scale (nM): the lower, the stronger. Replicates are averaged; those with no signal do not enter the mean. "not detected" means that the variant was in the library but no mating with the target was seen in any replicate; the authors take this as a sign of poor binding, and no number exists. The parent sequence was in this pool as ten entries: three were never detected, three once, and four in most replicates, with averages from 0.34 to 2.37. Nonspecific signal, from three strains lacking the peptide, appeared in 4% of pairings of all light chain designs, centred on 2.64 (5% of these signals below 1.59); values are not corrected for it. Also given: how often the same scFv was detected with the empty control strains. Values of this round are not directly comparable with the first-round values of the same sequences. The authors averaged sequences with at least three values out of six and counted those with two or fewer as poor binders.

VL,"log10 Kd (nM), mean",replicates with signal,control signals
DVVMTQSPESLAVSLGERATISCKLLQAVVGETYNKNSVAWYQQKAGQPPKLLIYHNSTREDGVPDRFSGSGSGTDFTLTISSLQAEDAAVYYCQEYARLPLSFGGGTKVEIK,not detected,0/6,1/18
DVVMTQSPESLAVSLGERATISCESSQSVEYESRNKNSVAWYQQKAGQPPKLLIYHASMRESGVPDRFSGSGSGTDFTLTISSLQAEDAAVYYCYQYHRLPLSFGGGTKVEIK,not detected,0/6,1/18
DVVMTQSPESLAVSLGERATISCKSSQSVLYESENKNSMAWYQQKAGQPPKLLIYWASTRVSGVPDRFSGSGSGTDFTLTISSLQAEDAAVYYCQQYHRLPLSFGGGTKVEIK,1.12,6/6,3/18
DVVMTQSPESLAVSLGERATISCKVSQSVEYESRNKNSVAWYQQKAGQPPKLLIYEASTRESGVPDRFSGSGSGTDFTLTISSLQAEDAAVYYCQQYHRLPLSFGGGTKVEIK,-0.17,6/6,0/18
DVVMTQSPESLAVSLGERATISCKYSQQNLYEQRNFNSVAWYQQKAGQPPKLLIYNASYRESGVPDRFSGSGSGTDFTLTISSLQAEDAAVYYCQQYHRLPLSFGGGTKVEIK,0.19,6/6,2/18
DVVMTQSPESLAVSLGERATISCKLSQSVMFMSGVYNSVAWYQQKAGQPPKLLIYQMSTRAEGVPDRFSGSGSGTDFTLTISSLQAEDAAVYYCQQYNHLPLSFGGGTKVEIK,0.07,6/6,0/18
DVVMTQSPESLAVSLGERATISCQYSMNLEIYDQEQWNVAWYQQKAGQPPKLLIYHGEMRTEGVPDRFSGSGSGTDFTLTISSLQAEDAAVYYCQQYHKLPLSFGGGTKVEIK,0.66,6/6,1/18
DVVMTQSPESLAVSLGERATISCKLHQSMGYEQRNKNSVAWYQQKAGQPPKLLIYSASTRSHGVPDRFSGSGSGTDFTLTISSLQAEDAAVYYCQQYHRLPLSFGGGTKVEIK,0.55,6/6,0/18
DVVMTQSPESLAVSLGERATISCKLDMNELGQSQNSSHVAWYQQKAGQPPKLLIYGSAQKCQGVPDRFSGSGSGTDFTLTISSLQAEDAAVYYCQQYSRLPLSFGGGTKVEIK,1.50,6/6,1/18
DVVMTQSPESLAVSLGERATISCKSSQEEDYESRNKNSVAWYQQKAGQPPKLLIYWASTRESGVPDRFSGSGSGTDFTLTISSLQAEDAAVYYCQQYHRLPLSFGGGTKVEIK,0.70,6/6,0/18
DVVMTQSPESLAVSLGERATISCKSSQSVLYEFRNKNNVAWYQQKAGQPPKLLIYQASTRESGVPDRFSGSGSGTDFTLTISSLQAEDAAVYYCQQYHRLPLSFGGGTKVEIK,0.31,6/6,0/18
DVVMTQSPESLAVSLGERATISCMLGDVAQGLTRKEDSVAWYQQKAGQPPKLLIYDNSTRESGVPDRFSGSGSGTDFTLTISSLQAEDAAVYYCQQYDRLPLSFGGGTKVEIK,2.28,6/6,1/18

The remaining entries, values ahead:

"log10 Kd (nM), mean",replicates with signal,control signals,VL
0.23,6/6,1/18,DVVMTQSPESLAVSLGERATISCKLPMATMQESVSKNSVAWYQQKAGQPPKLLIYELSTRGSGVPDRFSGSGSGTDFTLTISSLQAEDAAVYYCQQYHRLPLSFGGGTKVEIK
-0.11,6/6,0/18,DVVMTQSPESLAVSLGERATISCKLSQSMLYESRNKNAVAWYQQKAGQPPKLLIYNASTRMSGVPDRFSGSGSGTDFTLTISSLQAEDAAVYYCQQYHRLPLSFGGGTKVEIK
0.94,6/6,0/18,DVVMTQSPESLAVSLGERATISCTIGAATLEESRNKNSVAWYQQKAGQPPKLLIYEMSMRENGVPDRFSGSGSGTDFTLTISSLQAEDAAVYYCQSYNRLPLSFGGGTKVEIK
2.10,4/6,0/18,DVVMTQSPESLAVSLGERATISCMITAVMNAYNGSFSSIAWYQQKAGQPPKLLIYDKTISVNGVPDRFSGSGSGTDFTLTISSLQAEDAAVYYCQQYHRLPLSFGGGTKVEIK
0.51,6/6,2/18,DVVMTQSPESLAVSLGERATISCKFSQMDLYESRNKNQVAWYQQKAGQPPKLLIYDASQRSSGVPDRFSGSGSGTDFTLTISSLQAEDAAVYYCQQYHRLPLSFGGGTKVEIK
0.25,6/6,0/18,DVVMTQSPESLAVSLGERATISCKLVGSWQYEDRNKNSVAWYQQKAGQPPKLLIYHASQRCSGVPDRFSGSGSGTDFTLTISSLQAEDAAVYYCQQYHRLPLSFGGGTKVEIK
0.72,6/6,0/18,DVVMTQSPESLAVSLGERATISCKSSWSVLYESNNKNSVAWYQQKAGQPPKLLIYEASTREDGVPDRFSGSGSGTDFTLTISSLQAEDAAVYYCQQYHRLPLSFGGGTKVEIK
1.15,6/6,0/18,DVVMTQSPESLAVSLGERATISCKISQSHPYEDRNFNSVAWYQQKAGQPPKLLIYNASYRCSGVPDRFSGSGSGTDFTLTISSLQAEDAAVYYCQQYHRLPLSFGGGTKVEIK
not detected,0/6,0/18,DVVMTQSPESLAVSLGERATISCQLRDDIWADGMNKGSIAWYQQKAGQPPKLLIYANEVSKDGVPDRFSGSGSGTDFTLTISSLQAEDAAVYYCQQYNRLPLSFGGGTKVEIK
not detected,0/6,0/18,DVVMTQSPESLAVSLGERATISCKSSQEVLYESRMLNSVAWYQQKAGQPPKLLIYWASTRESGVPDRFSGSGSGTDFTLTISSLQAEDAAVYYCQQYHRLPALFGGGTKVEIK
0.46,6/6,1/18,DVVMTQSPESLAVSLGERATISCKISQQVLGESRNMNSVAWYQQKAGQPPKLLIYNASTREAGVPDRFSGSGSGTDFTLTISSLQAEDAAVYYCQQYHRLPLSFGGGTKVEIK
0.04,6/6,4/18,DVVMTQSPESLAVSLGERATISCKMEQGQLYESRNKGSVAWYQQKAGQPPKLLIYGASVRESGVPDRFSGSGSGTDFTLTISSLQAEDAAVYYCQQYHRLPLSFGGGTKVEIK

Again, the first 2 entries without any signal:

VL,"log10 Kd (nM), mean",replicates with signal,control signals
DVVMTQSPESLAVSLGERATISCKLLQAVVGETYNKNSVAWYQQKAGQPPKLLIYHNSTREDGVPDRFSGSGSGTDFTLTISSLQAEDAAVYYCQEYARLPLSFGGGTKVEIK,not detected,0/6,1/18
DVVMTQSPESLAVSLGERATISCESSQSVEYESRNKNSVAWYQQKAGQPPKLLIYHASMRESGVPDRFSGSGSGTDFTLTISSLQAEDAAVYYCYQYHRLPLSFGGGTKVEIK,not detected,0/6,1/18